In patent publication EP4660190A1, “PHARMACEUTICALLY ACCEPTABLE SALT OF COMPOUND AND PREPARATION METHOD THEREFOR” (Jiangsu Chia Tai Fenghai Pharmaceutical Co., Ltd., priority 2023, dated 2024):

Test: SOD1-G93A ALS mice, body weight
Conditions: 25 mg/kg p.o., compared to the solvent group

Nc1nc2ccc(OC(F)(F)F)cc2s1 [Riluzole, reference compound]
effect on the body weight of the mice: no significant effect
